The values below come from PMC9425029, “Secretagogin is a Ca^2+-dependent stress-responsive chaperone that may also play a role in aggregation-based proteinopathies” (The Journal of Biological Chemistry, 2022).

This assay has as its target Secretagogin (mouse SCGN) (mouse) (UniProt Q91WD9). The assay is described as follows: ITC; ITC-200, 30 °C; SCGN 60 μM in the cell, α-synuclein 600 μM in the syringe; Chelex-purified 50 mM Tris pH 7.5, 100 mM KCl, 2 mM Ca2+; one set of sites model. In general terms: Isothermal titration calorimetry measures the heat released or taken up as one component is titrated into another.

Take “α-synuclein (from UniProt P37840 1-140) (natural protein)”: the Kd (usually the free concentration of one partner at which half of the binding sites on the other are occupied at equilibrium, for simple one-to-one binding) came out at 110 µM and the dH was found to be 0.00124 kcal/mol.
